{"sequences": {"note": "The chains behind the UniProt entries cited, without tags or fusion partners.", "UniProt P0AES4, whole entry": "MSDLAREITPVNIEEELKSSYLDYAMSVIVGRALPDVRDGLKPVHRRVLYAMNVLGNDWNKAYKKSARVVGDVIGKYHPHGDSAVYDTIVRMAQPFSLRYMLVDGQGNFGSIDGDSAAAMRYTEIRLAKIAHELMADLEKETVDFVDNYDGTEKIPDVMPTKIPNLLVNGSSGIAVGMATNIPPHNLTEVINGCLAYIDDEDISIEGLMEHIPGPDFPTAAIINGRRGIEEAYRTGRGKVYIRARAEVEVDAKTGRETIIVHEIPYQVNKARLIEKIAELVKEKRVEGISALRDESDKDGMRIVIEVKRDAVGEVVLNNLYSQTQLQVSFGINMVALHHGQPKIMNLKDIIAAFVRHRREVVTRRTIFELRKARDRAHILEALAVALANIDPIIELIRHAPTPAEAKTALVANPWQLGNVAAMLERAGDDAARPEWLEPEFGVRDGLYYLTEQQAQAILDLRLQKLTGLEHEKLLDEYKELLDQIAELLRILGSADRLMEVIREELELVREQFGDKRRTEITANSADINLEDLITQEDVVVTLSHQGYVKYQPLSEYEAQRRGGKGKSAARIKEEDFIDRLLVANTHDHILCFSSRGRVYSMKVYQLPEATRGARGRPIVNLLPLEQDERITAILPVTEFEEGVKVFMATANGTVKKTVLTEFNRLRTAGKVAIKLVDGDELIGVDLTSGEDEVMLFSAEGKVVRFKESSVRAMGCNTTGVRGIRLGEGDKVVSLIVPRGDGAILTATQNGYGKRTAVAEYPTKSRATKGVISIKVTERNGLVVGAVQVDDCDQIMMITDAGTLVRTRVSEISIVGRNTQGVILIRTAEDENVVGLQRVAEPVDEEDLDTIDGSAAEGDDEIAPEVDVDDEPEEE"}, "source": "paper PMC11489056", "about": "“Molecular mechanism of a triazole-containing inhibitor of Mycobacterium tuberculosis DNA gyrase” (iScience, 2024)", "target": "wild-type E. coli DNA gyrase (Escherichia coli, UniProt P0AES4+P0AES6)", "type": "biochemical", "conditions": "60 min"}
{"smiles": "COc1ccc2nccc(-n3cc(CCNCc4ccc5c(c4)NC(=O)CS5)nn3)c2n1", "note": "[BDM71403 (10a)]", "values": [{"measurement": "IC50 for E. coli wild-type gyrase lower than that for the Mtb gyrase", "result": 25, "unit": "fold"}]}
